Consider 32 compounds from publication PMC6013488, “A widely-applicable high-throughput cellular thermal shift assay (CETSA) using split Nano Luciferase” (Scientific Reports, 2018).

The chains behind the UniProt entries cited, without tags or fusion partners.
UniProt P50750, whole entry: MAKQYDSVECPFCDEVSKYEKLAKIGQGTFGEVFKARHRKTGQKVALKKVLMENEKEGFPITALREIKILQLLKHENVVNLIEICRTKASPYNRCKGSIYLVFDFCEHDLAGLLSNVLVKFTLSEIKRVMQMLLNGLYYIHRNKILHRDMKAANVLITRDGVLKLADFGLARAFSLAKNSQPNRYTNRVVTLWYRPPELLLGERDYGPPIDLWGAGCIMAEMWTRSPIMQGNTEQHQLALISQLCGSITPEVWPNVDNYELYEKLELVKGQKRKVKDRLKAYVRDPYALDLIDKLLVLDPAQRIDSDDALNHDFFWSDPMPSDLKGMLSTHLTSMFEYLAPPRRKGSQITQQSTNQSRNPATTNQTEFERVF

Where a name gives a salt, the structure may show the parent alone.

One assay concerns the target T1, CDK9/cyclin K (Homo sapiens, UniProt P50750).
T1 construct: purchased Invitrogen (ThermoFisher) PV4335
In words: TR-FRET Lanthascreen Eu Kinase Binding assay. The settings on record: AC50, concentration at which half maximal activity is observed; 7-point qHTS. Background: Time-resolved FRET reads energy transfer from a long-lived donor to a nearby acceptor.
For `CC(C)c1nn(-c2c(Cl)cccc2Cl)c2nc(Cc3ccc(OCCO)cc3)[nH]c(=O)c12` [Cdk/Crk Inhibitor], the AC50 worked out at 1.06e-08 M.
As to `C[S+](=O)([O-])N1CCC(NC(=O)c2[nH]ncc2NC(=O)c2c(Cl)cccc2Cl)CC1` [NVP-LCQ195], the AC50 was found to be 2.99e-08 M.
`O=C(NCc1cccc(O)c1)Nc1nc(-c2ccncc2)cs1` [RKI-1447] showed a half-maximal activity concentration (AC50) of 1.34e-07 M.
`NC(=O)c1ccccc1Nc1ccnc(Nc2cccc(O)c2)n1` [DB07268] had an AC50 of 7.52e-07 M. Compared with the last compound, the AC50 is about 5.6-fold higher.
The compound `CC(C)c1cnn2c(NCc3ccccc3)cc(N[C@@H](CO)[C@H](O)CO)nc12` [BS194] displayed an AC50 of 1.68e-08 M.
`N#C/C(=C\c1ccc(O)c(O)c1)C(=O)NCCCNC(=O)/C(C#N)=C/c1ccc(O)c(O)c1` [Tyrphostin AG 537] came in with a concentration at half-maximal activity (AC50) of 4.74e-07 M.
As for `CC(C)n1nc(-c2ccc(NC(=O)Nc3cccc(C(F)(F)F)c3)cc2)c2c(N)ncnc21` [AD57 (hydrochloride)], half-maximal activity (AC50) was put at 5.97e-07 M.
With `CCCCNc1ncc(C(=O)NCc2ccc(-n3ccnc3)cc2)c(NC2CCC(O)CC2)n1` (stereo in doubt) [UNC2881], half-maximal activity (AC50) was put at 4.74e-07 M.
Turning to `O=C1Nc2ccccc2/C1=C1/Nc2ccccc2/C1=N\OCCC(O)CO` (centres unmarked) [Indirubin_E8], half-maximal activity (AC50) was put at 8.44e-07 M.
Take `CN(C)c1nc2c(Br)c(Br)c(Br)c(Br)c2[nH]1` [DMAT]: the half-maximal activity concentration (AC50) is 4.74e-07 M.
`Cc1cc(CN2CCN(c3c(Br)cnc4nc(-c5ccc(N6CCN(C)CC6)cc5)[nH]c34)CC2)no1` [CCT137690] displayed an AC50 of 5.97e-07 M. This AC50 and that of the compound before are within 1.5-fold of each other.
The compound `Cc1ccc(C(N)=O)cc1Nc1nccc(-c2cn(C(C)C)c3cnccc23)n1` [NCGC00263020-01] gave an AC50 of 3.98e-07 M.
As to `O=C1Nc2ccc3ncsc3c2/C1=C/c1c[nH]cn1` [Compound C16, C16], the concentration at half-maximal activity (AC50) is 8.44e-08 M.
On the same count and under the same terms, with `Nc1ncnc2c1c(I)cn2[C@@H]1O[C@H](CO)[C@H](O)C1O` (some centres unmarked) [5-Iodotubercidin] the figure was 1.5e-07 M; with `Nc1n[nH]c(N)c1N=Nc1ccc(O)cc1` (stereo in doubt) [CAY10574], 4.23e-07 M; with `CN(C)CCCn1cc(C2=C(c3c[nH]c4ccccc34)C(=O)NC2=O)c2ccccc21` [GF109203X], 9.47e-07 M.
In turn, `CN(C)C/C=C/C(=O)Nc1cccc(C(=O)Nc2ccc(Nc3nccc(-c4cccnc4)n3)cc2)c1` [JNK-IN-7] came in with a concentration at half-maximal activity (AC50) of 3.77e-07 M.
In turn, `CN[C@H]1CCN(C(=O)c2ccc(Nc3ncc(F)c(-c4cnc(C)n4C(C)C)n3)cc2)C1` [AZD-5597] yielded a half-maximal activity concentration (AC50) of 1.9e-09 M.
On the same count and under the same terms, with `COc1ccc(-c2cc3nccn3c(Nc3ncccc3C(N)=O)n2)cc1OC` [BAY 61-3606 (dihydrochloride)] the figure was 1.5e-07 M.
`Cn1cc(C2=C(c3cn(CCCSC(=N)N)c4ccccc34)C(=O)NC2=O)c2ccccc21` [Ro 31-8220 (mesylate)] returned a concentration at half-maximal activity (AC50) of 3.77e-08 M.
For the compound `Cc1cc(Nc2cc(NC(=O)c3c(Cl)cccc3Cl)ccn2)nc(N)n1` [RO495], the activity was half-maximal at 9.47e-08 M (AC50).
As to `OCCCNc1cc(-c2ccnc(Nc3cccc(Cl)c3)n2)ccn1` [CGP60474], half-maximal activity (AC50) was put at 8.4e-09 M.
With `N#C/C(=C1\Nc2ccccc2S1)c1ccnc(NCCc2cccnc2)n1` [AS601245], the activity was half-maximal at 3.36e-07 M (AC50). Compared with the last compound, the AC50 is about 40-fold higher.
With `O=C1NCCSc2c1sc1ccc(O)cc21` [kb-NB142-70], the AC50 was determined as 1.68e-07 M.
Take `O=C1Nc2ccc3ncsc3c2/C1=C/Nc1ccc([S+](=O)([O-])Nc2ccccn2)cc1` [GW8510]: the activity was half-maximal at 4.33e-07 M (AC50).
For `Cc1n[nH]c2ccc(-c3cncc(OC[C@@H](N)Cc4c[nH]c5ccccc45)c3)cc12` [Compound A-443654, A-443654], the activity was half-maximal at 1.68e-07 M (AC50). Compared with the last compound, the AC50 is about 2.6-fold lower.
The compound `O=[N+]([O-])c1cccc2[nH]c(CNc3nc(N4CCOCC4)nc4c3ncn4-c3ccsc3)nc12` [NCGC00386926-01] yielded an AC50 of 3.77e-07 M.
As to `O=C1Nc2ccc(F)cc2/C1=C1\Nc2ccccc2\C1=N\O` [5 -Fluoroindirubinoxime], the activity was half-maximal at 5.32e-07 M (AC50).
Regarding `COc1ccccc1-c1c[nH]c2ncc(-c3cncc(C(=O)N(C)C)c3)cc12` [PPY A], the half-maximal activity concentration (AC50) stood at 2.38e-07 M.
The same measure, in the same setting: the same measure for `O=C1OC(/C=C/c2ccccc2)=NC/1=C\c1cccnc1` [TC-DAPK 6]: 3.36e-07 M.
Still for that read-out and setting: with `Oc1cc(CNC(=S)/C=C/c2cc(O)c(O)c(Br)c2)cc(O)c1O` [NT 157] the figure was 6.7e-07 M.

Still in this assay, the particulars now being: Log AC50 (M), logarithm of AC50.
For the compound `CC(C)[C@H](CO)Nc1nc(Nc2cccc(Cl)c2)c2ncn(C(C)C)c2n1` [Purvalanol A], the AC50 was 7.94e-07 M.

A word on the AC50: it is the concentration giving half of the maximal activity seen.
